Results from patent US20060134102A1, “Lymphotoxin beta receptor agents in combination with chemotherapeutic agents” (Biogen Idec MA Inc., priority 2002, published 2006).

System: WiDr human colorectal adenocarcinoma
Assay: WiDr xenograft model: growth of established WiDr human colorectal tumors in athymic nude mice (tumor volume/weight, % T/C, Fa, Combination Index)
Settings: day 35

With COc1cccc2c1C(=O)c1c(O)c3c(c(O)c1C2=O)C[C@@](O)(C(=O)CO)C[C@@H]3O[C@H]1C[C@H](N)[C@H](O)[C@H](C)O1 [Adriamycin, adriamycin] the “Tumor volume, individual animals” value (Adriamycin 4 mg/kg) was 1087.2 and the “Tumor volume, individual animals” value (Adriamycin 6 mg/kg) was 1017.1.
